Like-named read-outs stand apart in the source and are kept apart here.
T1: human PTH/PTHrP receptor (PTH1 receptor) (human, UniProt Q03431 27-593)
T1 sequence (looked up): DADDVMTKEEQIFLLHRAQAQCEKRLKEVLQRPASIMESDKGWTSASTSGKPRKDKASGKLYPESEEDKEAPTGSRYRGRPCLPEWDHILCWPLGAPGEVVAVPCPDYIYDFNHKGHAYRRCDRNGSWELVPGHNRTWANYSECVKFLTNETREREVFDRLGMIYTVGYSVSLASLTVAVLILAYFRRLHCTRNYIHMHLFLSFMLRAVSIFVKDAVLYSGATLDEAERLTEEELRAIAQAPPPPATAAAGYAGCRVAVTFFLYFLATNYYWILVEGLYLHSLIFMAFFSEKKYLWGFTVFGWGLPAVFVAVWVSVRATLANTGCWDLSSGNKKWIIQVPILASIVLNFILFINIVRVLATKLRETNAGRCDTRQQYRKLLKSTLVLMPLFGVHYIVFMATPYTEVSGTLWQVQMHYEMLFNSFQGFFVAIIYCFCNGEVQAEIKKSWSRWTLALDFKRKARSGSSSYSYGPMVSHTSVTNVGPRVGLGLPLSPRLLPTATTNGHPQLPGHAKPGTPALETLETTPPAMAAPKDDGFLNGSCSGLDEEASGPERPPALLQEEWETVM


Legend:
[1] = molecular target: T1, human PTH/PTHrP receptor (PTH1 receptor); assay: cell-based or functional assay
[2] = molecular target: T1, human PTH/PTHrP receptor (PTH1 receptor); assay: cell-based or functional assay; remark: listed apart in the source
[3] = molecular target: T1, human PTH/PTHrP receptor (PTH1 receptor); assay: competition of 125I-(Tyr36)hPTHrP-(1-36)NH2 binding, human renal cortical membranes, 30 C, 30 min
[4] = molecular target: T1, human PTH/PTHrP receptor (PTH1 receptor); assay: as above; remark: listed apart in the source
[5] = molecular target: T1, human PTH/PTHrP receptor (PTH1 receptor); assay: competition of 125I-(Tyr36)hPTHrP-(1-36)NH2 binding, SaOS-2 membranes, 30 C, 60 min

Adenylate cyclase (EC50), kidney membranes (human RCM) [1]	Adenylate cyclase (EC50), kidney membranes (human RCM) [2]	IC50 [3]	IC50 [4]	IC50 [5]	Binder
0.26 nM	0.26 nM				AVSEIQFMHNLGKHLSSMERVEWLRKKLQDVHNF (peptide, UniProt P01268 32-65, looked up, range 1-34; Synthetic, Bachem; also called bPTH-(1-34); bovine (b)PTH-(1-34)) [bovine PTH-(1-34)]
		0.35 nM	0.35 nM	0.56 nM	AVSEIQLMHNLGKHLASVERMQWLRKKLQDVHNF (peptide, UniProt P04089 32-65, looked up, range 1-34; Synthetic, Bachem; also called rPTH-(1-34); rat (r)PTH-(1-34)) [rat PTH-(1-34)]

Reference: patent US20060025342A1 (OSTEOTROPHIN, published 2006)
